Tests used:
[1] = type: ADME, organism-based, Sprague-Dawley; conditions: rat, in vivo, iv
[2] = type: ADME, organism-based, Sprague-Dawley; conditions: rat, in vivo, iv; remark: listed apart in the source

Compound C=C[C@H]1CN2CCc3c([nH]c4cccc(OC)c34)[C@@H]2C[C@@H]1/C(=C\OC)C(=O)OC has a Vz [1] of 71.9 L/kg and a CL [2] of 88.3 mL/min/kg.
